Measurements taken from article PMC6374516, “Phencynonate S-isomer as a eutomer is a novel central anticholinergic drug for anti-motion sickness” (2019).

Experiments:
motion sickness [1] = conditions: clinical trials, cited from earlier work
[2] = Chiral metabolism in rat liver microsomes
[3] = Plasma protein binding in rat plasma by equilibrium dialysis
locomotor activity = assay: Locomotor activity test in mice; conditions: 1.4 and 5.6 mg/kg, oral
CYP1A1 = CYP1A1 protein level in rat liver by Western blot; conditions: compared to control group
motion sickness [4] = assay: Rotation stimulation, motion sickness index in mice; conditions: oral, 30 min before rotation
Caco-2 cell monolayer = assay: Transport across a Caco-2 cell monolayer; conditions: AP to BL, within 120 min after dosing, R- versus S-isomer
[5] = high-concentration (400 μM racemate), after 150 min
[6] = low-concentration group (100 μM racemate), after 120 min
[7] = medium-concentration (200 μM racemate), after 150 min
[8] = isomer concentration 62.5 μg/ml

| Compound | incidence of drowsiness (motion sickness [1]) | overall effective rates for the prevention of seasickness and carsickness (motion sickness [1]; oral 1–2 mg/person) | unchanged concentration in rat liver microsomes [2, 5] | unchanged concentration in rat liver microsomes [2, 6] | unchanged concentration in rat liver microsomes [2, 7] | plasma binding rate [3, 8] [%] | plasma binding rate ([3]; isomer concentration 125 μg/ml) [%] | plasma binding rate ([3]; isomer concentration 250 μg/ml) [%] | total distance (locomotor activity) (locomotor activity) | central distance ratio (anxiogenic indicator) (locomotor activity; versus model group) | decrease of CYP1A1 protein (CYP1A1) [%] | reduction of the motion sickness index (motion sickness [4]; high dose 5.6 mg/kg) [%] | reduction of the motion sickness index (motion sickness [4]; low dose 1.4 mg/kg) [%] | permeability across Caco-2 monolayer (Caco-2 cell monolayer) |
| --- | --- | --- | --- | --- | --- | --- | --- | --- | --- | --- | --- | --- | --- | --- |
| CN1CC2CCCC(C1)C2OC(=O)C(O)(c1ccccc1)C1CCCC1 (centres unmarked) | significantly lower than that of scopolamine | very significantly higher than that of placebo and control drug |  |  |  |  |  |  |  |  |  |  |  |  |
| CN1CC2CCCC(C1)C2OC(=O)[C@@](O)(c1ccccc1)C1CCCC1 (some centres unmarked) |  |  | 127.93 ± 5.71 | 36.88 ± 0.42 | 63.33 ± 5.45 | 64.46 | 62.18 | 56.02 |  |  |  |  |  |  |
| CN1CC2CCCC(C1)C2OC(=O)[C@](O)(c1ccccc1)C1CCCC1 (some centres unmarked) |  |  | 90.92 ± 2.72 | 23.14 ± 1.86 | 38.33 ± 1.58 | 64.03 | 60.33 | 54.65 | reversely increased the total distance | significantly reduce the central distance ratio | 23 | 79.3 | 53.4 | no obvious difference in the permeability |
